Compound activity: PubChem BioAssay, Broad Institute
In the library only some 1.5% were active in any assay of this set; here they are far more common.
Yeast UUG start: modulators of yeast start codon fidelity, primary screen, whole organism, S. cerevisiae, single point, plate reader | AID 602363, 2012 | actives 0.13% (n = 350,000) | activity score, % at 18.7 µM | S. cerevisiae UUG-firefly luciferase reporter, luminescence/redox ratio;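 active means replicate mean at a twofold rise or more, about +100% in these data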;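 further: firefly luciferase made from a UUG start codon reports start codon fidelity; reporter light over untreated wells divided by growth signal over untreated wells; some hits fall short of that in this replicate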
miR122 inh: miR-122 inhibition in Huh7 cells; Huh7 miR-122 Renilla luciferase sensor, 48 h; neutral wells = 0, positive control = 100; activation (reporter increase), % at 12.5 µM; 340,000 compounds, 0.3% hits;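 active means mean replicate activation score at least 90 and every replicate individually at or above 90; inconclusive means only one of the two criteria met; inactive means neither criterion met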;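 further: higher luciferase means less miR-122 activity so hits act as miR-122 inhibitors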
HIV Env fusion: HIV envelope-mediated fusion inhibition; HeLa-JRFL Env/CEM21 cell fusion, luciferase; inhibition, % at 12.3 µM; 360,000 compounds, 1.1% hits; AID 651610;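 active means mean replicate inhibition score of at least 50 and every replicate individually at or above 50; inconclusive means only one of the two criteria met; inactive means mean below 50 and not all replicates reaching 50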;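 further: 0% = plate neutral controls and 100% = maraviroc near 300 nM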
FN deposition inh: fibronectin deposition inhibition; AH1F fibroblasts, Alexa488-fibronectin deposition fluorescence, overnight; inhibition, % at 12.6 µM; 350,000 compounds, 0.086% hits; AID 743247;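 active means mean inhibition across replicates of 30% or more, regardless of how many single replicates reach that level; inconclusive means mean under 30% yet at least half of replicates reach 30%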;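 further: positive control wells lacked labelled fibronectin entirely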
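Assay system: AH1F fibroblasts assembling fluorescent fibronectin matrix; Amount: 10000 AH1F cells per well; Buffer or medium: DMEM, 2% serum; Probe or stimulus: Alexa488-fibronectin, 24 nM final in well; Doses: single compound dose, delivered by pin transfer; Incubation: 1 h adhesion, overnight exposure; Measured by: fluorescence 485/525 nm; Read-out: fibronectin deposition inhibition.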
Cneo AK release: causes C. neoformans cell lysis. lysis activity, % at 15 µM. adenylate kinase release luminescence, 4 h; normalised: neutral wells 0, clomiphene wells 100. 360,000 compounds, 0.2% hits;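 active means mean lysis activity across replicates of at least 80%, whatever share of replicates individually reach that level; inactive means mean lysis activity below 80%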
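Signal: Adenylate kinase release luminescence | Assay system: Log-phase Cryptococcus neoformans yeast cells | Input: Cells at 5 × 10^6 per mL | Buffer or medium: Fresh YPD growth medium | Compound: Single dose | Schedule: Static 4 h at 37 °C with compound, 1 h detection | Controls: Clomiphene | Read-out: Luminescence rise reflecting yeast cell lysis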
PGC1a acetyl inh: lowers PGC1a acetylation signal in U2OS cells; AlphaScreen anti-acetyl-lysine; with virally co-expressed GCN5 acetyltransferase; inhibition, % at 15.6 µM; 350,000 compounds, 0.17% hits; AID 651687;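 active means every replicate shows inhibition of at least 40%; inconclusive means mean inhibition at least 40% but some replicate below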;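 further: 0% = neutral control wells and 100% = positive control wells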
Active calls of the source: *; ? = inconclusive; . = no result given; [ ] = dose if it differs, or a comment.

Each structure is followed by: Yeast UUG start	miR122 inh	HIV Env fusion	FN deposition inh	Cneo AK release	PGC1a acetyl inh
COc1ccc(C2=NN3C(C2)c2ccccc2OC3c2cccs2)cc1 (stereo not given)
→ .	.	-79	0	.	5
Cc1ccc(C2=NN3C(C(=O)c4ccccc4)Oc4ccccc4C3C2)cc1 (stereo not given)
→ -18	114*	-132	-8	0	-9
Cc1cccc(Nc2nc(-c3c(C)nc4ccccn34)cs2)c1
→ -13	-2	92*	-3	4	12
S=c1[nH]nc(-c2ccco2)n1/N=C/c1cccs1
→ .	.	-12	10	.	.
O=c1c(Br)ccc(Br)cc1Br
→ 7	3	25	36*	-1	.
O=C1CN(S(=O)(=O)c2cc(Br)ccc2Br)CCN1
→ -7	1	-5	-5	-1	-5
Clc1ccc2nc(CSc3ncn[nH]3)cn2c1
→ -21	-3	1	4	1	10
Cc1ccc(-c2c[n+]3c(n2-c2ccccc2)SCC3)cc1
→ .	-1	59*	-10	.	3
COc1ccc(-c2c[n+]3c(n2-c2ccccc2)SCC3)cc1
→ 3	0	2	5	2	7
CCOCc1nnc(NS(C)(=O)=O)s1
→ -5	268*	-26	-4	0	.
CCOCc1nnc(NC(C)=O)s1
→ -10	1	-25	11	2	-1
CNC[C@@H]1Oc2ccc(NC(=O)Cc3ccccc3)cc2C(=O)N([C@@H](C)CO)C[C@H]1C
→ -8	-7[16.7 µM]	-12[16.7 µM]	2	-2	8
OCC1OC(n2ccc3c2ncn2ncnc32)C(O)C1O (stereo not given)
→ 18	.	55*	7	2	.
CCCS(=O)(=O)N1CCCC(C(=O)NCCCOC(C)C)C1 (stereo not given)
→ .	-4	.	.	.	64*
CCOC(=O)c1ccc(N2CCCCC2)c(NS(=O)(=O)c2cccc(C(F)(F)F)c2)c1
→ 0	19	64*	1	1	-18
CCN(CC)CCNC(=O)c1ccc2c(c1NCCO)C(=O)c1ccccc1C2=O
→ -24	-27	-35	3	-2	92*
Cc1sc(NC(=O)c2ccco2)c(C(c2cccnc2)N2CCC(C)CC2)c1C (stereo not given)
→ -11	-20	62*	-3	-5	16
CCN1CCN(C(c2cccnc2)c2c(NC(=O)c3ccco3)sc(C)c2C)CC1 (stereo not given)
→ -17	-4	.	7	-1	-5
CCc1nc2ccccc2c(C(=O)OCC(=O)N2CC(C)OC(C)C2)c1C (stereo not given)
→ -15	-1	64*	10	-1	.
CCc1nc2ccccc2c(C(=O)Oc2cccc3cccnc23)c1C
→ -11	-6	80*	25	0	.

Some of these compounds in order of the Yeast UUG start value, ascending:
Compound,Yeast UUG start,miR122 inh,HIV Env fusion,PGC1a acetyl inh
CCN(CC)CCNC(=O)c1ccc2c(c1NCCO)C(=O)c1ccccc1C2=O,-24,-27,-35,92*
Cc1sc(NC(=O)c2ccco2)c(C(c2cccnc2)N2CCC(C)CC2)c1C (stereo not given),-11,-20,62*,16
O=C1CN(S(=O)(=O)c2cc(Br)ccc2Br)CCN1,-7,1,-5,-5

Other compounds follow:
Each structure is followed by: Yeast UUG start	miR122 inh	HIV Env fusion	FN deposition inh	Cneo AK release	PGC1a acetyl inh
COc1ccc(-c2nnc(SCC(=O)N3CCOCC3)n2C)cc1OC
→ .	.	-18	.	.	.
O=c1[nH][nH]cc1C=Nc1ccccc1O
→ .	-24	72*	.	.	.
O=c1[nH][nH]cc1C=Nc1ccccc1Cl
→ .	.	5	3	.	.
CCS(=O)(=O)N1CCCCN2[C@H](CO)[C@@H](c3ccc(-c4ccc(C#N)cc4)cc3)[C@@H]2C1
→ 13	10[16.7 µM]	.	.	88*	-11
Cc1cccc(-c2ccc([C@@H]3[C@@H](CO)N4CCCCN(S(=O)(=O)c5ccccc5C)C[C@@H]34)cc2)c1
→ 2	17[16.7 µM]	.	.	108*	-8
Cc1cccc(-c2ccc([C@H]3[C@H]4CN(S(=O)(=O)c5ccccc5C)CCCCN4[C@H]3CO)cc2)c1
→ 19	6[16.7 µM]	.	.	0	-16
Cc1cccc(NC(=S)NCC(c2cccnc2)N2CCOCC2)c1C (stereo not given)
→ .	.	2	2	.	.
Cc1cc(C)n(-c2ccc(C(=O)N3CCc4ccccc43)cc2)n1
→ -6	-4	-83	-1	-9	10
Cc1cc(C(=O)N2CCc3ccccc32)n(-c2ccccc2)n1
→ -17	115*	-9	3	0	-1
CCCCc1c(Cc2ccccc2)ncn1CCc1ccccc1OC
→ .	.	58*	10	.	.
CCCCCc1c(-c2ccc(OC)cc2)ncn1CCc1ccccc1OC
→ .	.	62*	-7	.	.
O=C(CN(C(=O)CNS(=O)(=O)c1ccccc1)C1CCCC1)NCc1ccco1
→ 5	-7	.	.	-2	5
CC(Oc1ccc(Cl)cc1Cl)C(=O)Nc1ccc2oc(-c3ccncc3)nc2c1 (stereo not given)
→ -13	-6	64*	8	1	-2
COc1ncccc1C(=O)NC1CCCc2c1cnn2-c1ccc(C)c(C)c1 (stereo not given)
→ -2	1	12	31*	2	12
CO[C@@H]1CN(C)C(=O)c2cc(NC(=O)C3CC3)ccc2OC[C@H](C)N(C(=O)c2ccncc2)C[C@H]1C
→ 6	-6[16.7 µM]	?	-4	102*	0
CO[C@@H]1CN(C)C(=O)c2ccc(NC(=O)Nc3ccccc3)cc2OC[C@H](C)N(C(C)=O)C[C@H]1C
→ 17	1[16.7 µM]	-3[16.7 µM]	-16	119*	.
CO[C@@H]1CN(C)C(=O)c2cc(NC(=O)C3CC3)ccc2OC[C@@H](C)N(C(=O)c2ccncc2)C[C@@H]1C
→ -13	-11[16.7 µM]	-9[16.7 µM]	5	0	9
CO[C@@H]1CN(C)C(=O)c2cc(NC(C)=O)ccc2OC[C@@H](C)N(C(=O)c2ccncc2)C[C@H]1C
→ -6	4[16.7 µM]	-7[16.7 µM]	-1	-1	9
CO[C@H]1CN(C)C(=O)c2ccc(NC(C)=O)cc2OC[C@H](C)N(C(=O)c2ccccn2)C[C@@H]1C
→ .	.	.	-10	.	7
CO[C@H]1CN(C)C(=O)c2ccc(NC(C)=O)cc2OC[C@H](C)N(C(=O)c2ccncc2)C[C@@H]1C
→ 15	27[16.7 µM]	.	-2	82*	8

Complete entries as entered above. Screens in order: Yeast UUG start, miR122 inh, HIV Env fusion, FN deposition inh, Cneo AK release, PGC1a acetyl inh
COc1ccc(-c2c[n+]3c(n2-c2ccccc2)SCC3)cc1 across the screens: 3, 0, 2, 5, 2, 7
CCOCc1nnc(NS(C)(=O)=O)s1 across the screens: -5, 268*, -26, -4, 0, .
CCOC(=O)c1ccc(N2CCCCC2)c(NS(=O)(=O)c2cccc(C(F)(F)F)c2)c1 across the screens: 0, 19, 64*, 1, 1, -18
O=c1c(Br)ccc(Br)cc1Br across the screens: 7, 3, 25, 36*, -1, .

Continued:
Each structure is followed by: Yeast UUG start	miR122 inh	HIV Env fusion	FN deposition inh	Cneo AK release	PGC1a acetyl inh
CO[C@@H]1CN(C)C(=O)c2ccc(NC(C)=O)cc2OC[C@@H](C)N(C(=O)c2ccccn2)C[C@H]1C
→ 24	-3[16.7 µM]	-37[16.7 µM]	3	95*	11
CO[C@@H]1CN(C)C(=O)c2ccc(NC(=O)Nc3ccccc3)cc2OC[C@H](C)N(C(C)=O)C[C@@H]1C
→ 19	1[16.7 µM]	14[16.7 µM]	-2	4	.
C/C=C/c1ccc([C@H]2[C@@H](CO)N(C(=O)C3CC3)[C@H]2CNC(=O)NC(C)C)cc1
→ -10	-42[16.7 µM]	.	-2	4	6
Cc1ccc(NC(=O)CN2C(=O)S/C(=C\c3cccn3-c3cccc(C(=O)O)c3)C2=O)cc1C
→ .	.	13	3	.	5
O=C(Cc1ccc(Br)cc1)Nc1cccc(Cl)c1
→ .	6	8	-9	.	3
COc1cc2nc(CN(C)Cc3ccc(OC)c(OC)c3OC)[nH]c(=O)c2cc1OC
→ .	.	10	4	.	.
CCCC(=O)Nc1ccc2c(c1)C(=O)N(C)C[C@H](OC)[C@@H](C)CN(C(=O)c1cccnc1)[C@H](C)CO2
→ 10	.	.	-5	90*	-2
CC(=O)c1ccc(NC(=O)c2cc(CC(C)C)nc3ccccc23)cc1
→ -14	1	58*	5	16	17
